Experimental data taken from publication PMC3296737.

Target: 30 S ribosomal subunits depleted of protein S1 (30 S(-S1))
Test: in vitro reconstitution of 30 S subunits with ultrafiltration; competition: 30 S(-S1) subunits incubated concomitantly with S1 and S1_(Δ103–181) in equimolar amounts, 37°C, 30 min; 100 kDa MWCO ultrafiltration; SDS-PAGE, Coomassie

## HIS- and FLAG-tagged protein S1_(Δ103–181), purified (plasmid pProEX-S1ΔD2F) (from UniProt P0AG67 1-557) (natural protein)
  ratio of bound S1 (Δ103–181) to bound S1 in competition: 1
